Measured values published in patent US7893077B2, “Bisaryl-sulfonamides” (Amgen Inc., priority 2004, dated 2011).
pIC50: −log10 of the molar value. Like-named read-outs stand apart in the source and are kept apart here.

Amino acid sequences for entries named in this document (tags omitted).
UniProt P37231, whole entry: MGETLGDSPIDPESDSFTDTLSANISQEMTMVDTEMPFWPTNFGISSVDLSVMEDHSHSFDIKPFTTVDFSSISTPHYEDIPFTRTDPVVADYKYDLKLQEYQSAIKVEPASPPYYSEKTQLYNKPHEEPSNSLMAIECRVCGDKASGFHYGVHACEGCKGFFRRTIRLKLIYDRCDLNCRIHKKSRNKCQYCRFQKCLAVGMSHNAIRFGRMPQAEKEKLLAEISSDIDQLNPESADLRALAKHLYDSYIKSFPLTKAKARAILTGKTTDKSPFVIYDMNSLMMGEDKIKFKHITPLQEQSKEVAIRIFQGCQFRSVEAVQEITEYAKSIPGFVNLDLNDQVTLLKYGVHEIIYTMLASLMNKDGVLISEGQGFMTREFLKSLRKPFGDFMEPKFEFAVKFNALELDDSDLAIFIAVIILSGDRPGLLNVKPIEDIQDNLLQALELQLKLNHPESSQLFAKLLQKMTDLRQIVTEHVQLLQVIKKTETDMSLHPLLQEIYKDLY

Biological target: PPARγ (Homo sapiens, UniProt P37231)
Test: PPARγ ligand binding assay utilizing [3H]-BRL 49653 as the radioligand (filtration)
Details: read-out: PPARγ Binding IC50 Filtration, concentration required to reduce by 50% the specific binding of [3H]-BRL 49653
How it was run: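 Displacement of 10 nM [3H]-BRL 49653 from PPARγ-GST fusion protein in Tris-HCl pH 8.0 buffer with KCl, DTT, BSA and NP-40, 15 min incubation, then glutathione-bead capture for 1 h. Bound radioactivity counted after filtration washes; IC50 is concentration giving 50% loss of specific binding, reported in ranges.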

pIC50	pIC50 (tested form: TFA salt)	Structure (SMILES)
> 5.00		O=S(=O)(Nc1cnc(Sc2ccc(S(=O)(=O)N3CCCCC3)cc2)nc1)c1ccc(Cl)cc1Cl
> 6.00		CC(=O)c1cc(NS(=O)(=O)c2ccc(C(F)(F)F)cc2Cl)ccc1Oc1ccc(S(=O)(=O)N2CCCC2)c(C)c1
> 4.52		CC(=O)c1cc(NS(=O)(=O)c2cccc(C#N)c2)cc(Cl)c1Oc1ccc(S(=O)(=O)N2CCOCC2)cc1
> 5.00		CC(=O)c1cc(NS(=O)(=O)c2cccc(Cl)c2)cc(Cl)c1Oc1ccc(S(=O)(=O)N2CCOCC2)cc1
> 5.00		CC(=O)c1cc(NS(=O)(=O)c2ccccc2)cc(Cl)c1Oc1ccc(S(=O)(=O)N2CCOCC2)cc1
> 5.00		CC(=O)c1cc(NS(=O)(=O)c2cc(Cl)cc(Cl)c2)cc(Cl)c1Oc1ccc(S(=O)(=O)N2CCOCC2)cc1
> 6.00		O=S(=O)(Nc1cc(Cl)c(Oc2ccc(S(=O)(=O)N3CCSCC3)cc2)c(Cl)c1)c1ccc(C(F)(F)F)cc1Cl
> 5.00		CC(=O)c1cc(NS(=O)(=O)c2ccc(F)c(F)c2F)cc(Cl)c1Oc1ccc(S(=O)(=O)N2CCOCC2)cc1
> 6.00		CC(=O)c1cc(NS(=O)(=O)c2ccccc2OC(F)(F)F)cc(Cl)c1Oc1ccc(S(=O)(=O)N2CCOCC2)cc1
> 6.00		O=S(=O)(Nc1cc(Cl)c(Oc2ccc(S(=O)(=O)N3CCCCC3)cc2)c(Cl)c1)c1ccc(C(F)(F)F)cc1Cl
> 6.00		CCc1cc(S(=O)(=O)N2CCOCC2)ccc1Oc1c(Cl)cc(NS(=O)(=O)c2ccc(Cl)cc2Cl)cc1Cl
> 6.00		CCNC(=O)c1cc(NS(=O)(=O)c2ccc(C(F)(F)F)cc2Cl)ccc1Oc1ccc(S(=O)(=O)N2CCCC2)c(C)c1
> 6.00		CC(C)NC(=O)c1cc(NS(=O)(=O)c2ccc(Cl)cc2Cl)ccc1Oc1ccc(S(=O)(=O)N2CCCCC2)cc1
> 6.00		CCN(CC)S(=O)(=O)c1ccc(Oc2ccc(NS(=O)(=O)c3cc(C)c(Cl)cc3Cl)cc2Cl)cc1
> 5.00		CCOC(=O)c1cc(NS(=O)(=O)c2cc(C)c(Cl)cc2Cl)ccc1Oc1ccc(S(=O)(=O)N2CCOCC2)c(C)c1
> 6.00		O=S(=O)(Nc1cc(Cl)c(Sc2ccc(S(=O)(=O)N3CCOCC3)cn2)c(Cl)c1)c1ccc(C(F)(F)F)cc1Cl
> 6.00		CON(C)C(=O)c1cc(NS(=O)(=O)c2cc(C)c(Cl)cc2Cl)ccc1Oc1ccc(S(=O)(=O)N2CCCCC2)cc1
> 6.00		CCCC(=O)c1cc(NS(=O)(=O)c2ccc(Cl)cc2Cl)ccc1Oc1ccc(S(=O)(=O)N2CCOCC2)cc1
> 6.00		Cc1cc(S(=O)(=O)N2CCCCC2)ccc1Oc1c(Cl)cc(NS(=O)(=O)c2ccc(C(F)(F)F)cc2Cl)cc1Cl
> 6.00		Cc1cc(Oc2ccc(NS(=O)(=O)c3ccc(Cl)cc3Cl)cc2C(=O)NCC(C)C)ccc1S(=O)(=O)N1CCCCC1
> 6.00		C[C@@H]1CN(S(=O)(=O)c2ccc(Oc3c(Cl)cc(NS(=O)(=O)c4ccc(C(F)(F)F)cc4Cl)cc3Cl)cc2)C[C@H](C)O1 (relative stereo)
> 5.00		Cc1cc(Oc2ccc(NS(=O)(=O)c3ccc(C(F)(F)F)cc3Cl)cc2C(=O)N(C)C(C)C)ccc1S(=O)(=O)N1CCCC1
> 6.00		O=C(O)CS(=O)(=O)c1ccc(Sc2c(Cl)cc(NS(=O)(=O)c3ccc(C(F)(F)F)cc3Cl)cc2Cl)cc1

pIC50	pIC50 (tested form: TFA salt)	Structure (SMILES)
> 6.00		O=S(=O)(Nc1cc(Cl)c(Sc2ccc(S(=O)(=O)N3CCNCC3)cc2)c(Cl)c1)c1ccc(C(F)(F)F)cc1Cl
> 6.00		O=S(=O)(Nc1cc(Cl)c(Oc2ccc(S(=O)(=O)C3CCCC3)cc2)c(Cl)c1)c1ccc(C(F)(F)F)cc1Cl
> 5.00		CCOC(=O)c1nc(-c2cc(NS(=O)(=O)c3ccc(Cl)cc3Cl)ccc2Oc2ccc(S(=O)(=O)N3CCOCC3)cc2)cs1
> 6.00		O=S(=O)(Nc1cc(Cl)c(Sc2ccc(S(=O)(=O)N3CCCCC3)cc2)c(Cl)c1)c1ccc(C(F)(F)F)cc1Cl
> 5.00		O=S(=O)(Nc1ccc(Oc2ccc(S(=O)(=O)N3CCOCC3)cc2)c(Cl)c1)c1ccc(Cl)cc1Cl
> 6.00		O=S(=O)(Nc1cc(Cl)c([S+]([O-])c2ccc(S(=O)(=O)N3CCOCC3)cc2)c(Cl)c1)c1ccc(C(F)(F)F)cc1Cl (stereo not drawn)
> 5.00		COc1ccc(S(=O)(=O)Nc2cc(Cl)c(Oc3ccc(S(=O)(=O)N4CCOCC4)cc3)c(C(C)=O)c2)cc1OC
> 6.00		CCCC(=O)c1cc(NS(=O)(=O)c2ccc(Cl)cc2Cl)ccc1Oc1ccc(S(=O)(=O)N2CCCC2)cc1
> 5.00		NC(=O)c1cc(NS(=O)(=O)c2ccc(Cl)cc2Cl)cc(Cl)c1Oc1ccc(S(=O)(=O)N2CCOCC2)cc1
> 6.00		CC(C)OC(=O)c1cc(NS(=O)(=O)c2ccc(C(F)(F)F)cc2Cl)cc(Cl)c1Oc1ccc(S(=O)(=O)N2CCOCC2)cc1
> 6.00		CC(=O)c1cc(NS(=O)(=O)c2cc(C)c(Cl)cc2C)cc(Cl)c1Oc1ccc(S(=O)(=O)N2CCOCC2)cc1
	> 6.00	CN1CCN(S(=O)(=O)c2ccc(Oc3c(Cl)cc(NS(=O)(=O)c4ccc(C(F)(F)F)cc4Cl)cc3Cl)cc2)CC1
> 5.00		COc1ccc(OC)c(S(=O)(=O)Nc2cc(Cl)c(Oc3ccc(S(=O)(=O)N4CCOCC4)cc3)c(C(C)=O)c2)c1
> 5.00		O=C(O)c1cc(NS(=O)(=O)c2ccc(C(F)(F)F)cc2Cl)cc(Cl)c1Oc1ccc(S(=O)(=O)N2CCOCC2)cc1
> 6.00		CC(=O)c1cc(NS(=O)(=O)c2ccc(Cl)cc2Cl)cc(Cl)c1Oc1ccc(S(=O)(=O)N2CCCC2)c(C)c1
> 6.00		CC(=O)c1cc(NS(=O)(=O)c2ccccc2C)cc(Cl)c1Oc1ccc(S(=O)(=O)N2CCOCC2)cc1
> 5.00		CCN(CC)S(=O)(=O)c1ccc(Oc2ccc(NS(=O)(=O)c3ccc(Cl)cc3Cl)cc2C(C)=O)cc1
> 5.00		CCN(CC)S(=O)(=O)c1ccc(Oc2c(C)cc(NS(=O)(=O)c3cc(C)c(Cl)cc3C)cc2Cl)cc1
> 6.00		O=C(c1cc(NS(=O)(=O)c2ccc(C(F)(F)F)cc2Cl)ccc1Sc1ccc(S(=O)(=O)N2CCOCC2)cn1)C1CC1
> 5.00		CC(=O)c1cc(NS(=O)(=O)c2c(C)cc(C)cc2C)cc(Cl)c1Oc1ccc(S(=O)(=O)N2CCOCC2)cc1
> 6.00		CC(=O)c1cc(NS(=O)(=O)c2ccc(C#N)cc2Cl)cc(Cl)c1Oc1ccc(S(=O)(=O)N2CCOCC2)cc1
> 6.00		C=C(C)CC(=O)c1cc(NS(=O)(=O)c2ccc(Cl)cc2Cl)ccc1Oc1ccc(S(=O)(=O)N2CCCCC2)c(C)c1
> 5.00		CC(=O)c1cc(NS(=O)(=O)c2c(F)cccc2F)cc(Cl)c1Oc1ccc(S(=O)(=O)N2CCOCC2)cc1

pIC50	pIC50 (tested form: TFA salt)	Structure (SMILES)
> 6.00		CCC(=O)c1cc(NS(=O)(=O)c2cc(C)c(Cl)cc2Cl)ccc1Oc1ccc(S(=O)(=O)N2CCCCC2)cc1
> 6.00		O=S(=O)(Nc1cc(Cl)c(Oc2ccc(S(=O)(=O)N3CC[C@H](O)C3)cc2)c(Cl)c1)c1ccc(C(F)(F)F)cc1Cl
> 6.00		CCN(CC)S(=O)(=O)c1ccc(Oc2c(Cl)cc(NS(=O)(=O)c3cc(F)cc(Cl)c3C)cc2Cl)cc1
> 6.00		O=S(=O)(Nc1cc(Cl)c(Oc2ccc(S(=O)(=O)N3CCOCC3)cc2)c(Cl)c1)c1ccc(C(F)(F)F)cc1Cl
> 5.00		Cc1cc(Oc2ccc(NS(=O)(=O)c3ccc(Cl)cc3Cl)cc2C(=O)N(C)C(C)C)ccc1S(=O)(=O)N1CCCC1
> 6.00		CCC(=O)c1cc(NS(=O)(=O)c2ccc(C(F)(F)F)cc2Cl)ccc1Oc1ccc(S(=O)(=O)N2CCCCC2)cc1
> 5.00		CC(=O)Nc1ccc(S(=O)(=O)Nc2cc(Cl)c(Oc3ccc(S(=O)(=O)N4CCOCC4)cc3)c(C(C)=O)c2)cc1Cl
> 6.00		CS(=O)(=O)c1ccc(Sc2ccc(NS(=O)(=O)c3ccc(C(F)(F)F)cc3Cl)cc2Cl)cc1
> 5.00		CC(=O)c1cc(NS(=O)(=O)c2cccc(C(F)(F)F)c2)cc(Cl)c1Oc1ccc(S(=O)(=O)N2CCOCC2)cc1
> 6.00		Cc1cc(S(=O)(=O)Nc2cc(C)c(Sc3ccc(S(=O)(=O)N4CCCCC4)cc3)cn2)c(Cl)cc1Cl [Compound 62, 2,4-Dichloro-5-methyl-N-{4-methyl-5-[4-(piperidine-1-sulfonyl)-phenylsulfanyl]-pyridin-2-yl}-benzenesulfonamide]
> 6.00		CCN(CC)S(=O)(=O)c1ccc(Oc2c(Cl)cc(NS(=O)(=O)c3ccc(C(F)(F)F)cc3Cl)cc2Cl)c(C)c1
> 5.00		Cc1cc(NS(=O)(=O)c2ccc(C(F)(F)F)cc2Cl)nnc1Sc1ccc(S(=O)(=O)N2CCOCC2)cc1
> 6.00		CC(C)NC(=O)c1nc(NS(=O)(=O)c2ccc(Cl)cc2Cl)ccc1Sc1ccc(S(=O)(=O)N2CCCCC2)cc1 [Compound 85, 6-(2,4-Dichloro-benzenesulfonylamino)-3-[4-(piperidine-1-sulfonyl)-phenylsulfanyl]-pyridine-2-carboxylic acid isopropylamide]
> 6.00		CCC(=O)c1cc(NS(=O)(=O)c2ccc(Cl)cc2Cl)ccc1Oc1ccc(S(=O)(=O)N2CCCCC2)cc1
> 6.00		CC1CN(S(=O)(=O)c2ccc(Oc3c(Cl)cc(NS(=O)(=O)c4ccc(C(F)(F)F)cc4Cl)cc3Cl)cc2)CC(C)O1 (stereo not drawn)
> 6.00		CCc1nc(-c2cc(NS(=O)(=O)c3ccc(Cl)cc3Cl)ccc2Oc2ccc(S(=O)(=O)N3CCOCC3)cc2)cs1
> 6.00		CC(=O)c1cc(NS(=O)(=O)c2ccc(Cl)c(Cl)c2Cl)cc(Cl)c1Oc1ccc(S(=O)(=O)N2CCOCC2)cc1
> 6.00		CCN(CC)S(=O)(=O)c1ccc(Oc2ccc(NS(=O)(=O)c3ccc(C(F)(F)F)cc3Cl)cc2Cl)cc1
> 6.00		CC(=O)c1cc(NS(=O)(=O)c2ccc(Cl)cc2Cl)cc(Cl)c1Oc1ccc(S(=O)(=O)N2CCCCC2)cc1
> 5.00		O=S(=O)(Nc1ncc(Sc2ccc3ccccc3c2)c(O)n1)c1ccc(Cl)cc1Cl
> 6.00		O=S(=O)(Nc1cc(Cl)c(Sc2ccc(S(=O)(=O)N3CCOCC3)cc2)c(Cl)c1)c1ccc(C(F)(F)F)cc1Cl
> 6.00		Cc1cc(S(=O)(=O)Nc2ccc(Oc3ccc(S(=O)(=O)N4CCCCC4)cc3)c(C(=O)CC(C)C)c2)c(Cl)cc1Cl
> 6.00		Cc1cc(NS(=O)(=O)c2ccc(C(F)(F)F)cc2Cl)cc(C(=O)NC(C)C)c1Oc1ccc(S(=O)(=O)N2CCOCC2)cc1
